# Experimental data published in PubChem BioAssay AID588621 (Sanford-Burnham Center for Chemical Genomics, 2011).
# By UniProt entry, the sequences of proteins in these tests, tags left out. Where a name states a change or a piece, a line headed by the entry shows the natural chain unless it says otherwise.
# UniProt P54829: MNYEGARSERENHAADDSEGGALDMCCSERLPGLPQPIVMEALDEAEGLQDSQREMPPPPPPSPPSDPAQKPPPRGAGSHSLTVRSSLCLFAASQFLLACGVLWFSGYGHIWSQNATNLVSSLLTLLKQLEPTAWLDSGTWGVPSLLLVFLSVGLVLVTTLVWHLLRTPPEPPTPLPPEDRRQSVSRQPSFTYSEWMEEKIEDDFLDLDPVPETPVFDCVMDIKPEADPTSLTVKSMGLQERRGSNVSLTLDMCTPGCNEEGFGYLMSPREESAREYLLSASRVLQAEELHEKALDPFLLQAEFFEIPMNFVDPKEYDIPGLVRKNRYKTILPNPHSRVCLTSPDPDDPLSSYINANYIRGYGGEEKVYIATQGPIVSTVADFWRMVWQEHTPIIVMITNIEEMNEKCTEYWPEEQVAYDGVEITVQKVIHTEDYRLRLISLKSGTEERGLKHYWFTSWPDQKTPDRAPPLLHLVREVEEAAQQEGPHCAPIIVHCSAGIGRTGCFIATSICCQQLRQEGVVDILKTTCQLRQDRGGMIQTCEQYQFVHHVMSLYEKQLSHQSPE
# This is a selection; strong and weak results do not stand in their true shares. Active and inactive are the calls of the source.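 How the source made its calls: active means inhibition at 20 µM, scaled per plate between control wells, above about 37% (limit read from the data); inactive means the rest.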
# Target: Tyrosine-protein phosphatase non-receptor type 5 (Homo sapiens) (UniProt P54829)
# Assay: STEP phosphatase inhibitors, primary screen, biochemical, fluorescence intensity, uHTS (AID 588621);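 further: 0% = DMSO with enzyme and substrate and 100% = substrate only without enzyme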
# Details: recombinant STEP, OMFP fluorogenic substrate, at 20 µM, hits give high values
# Procedure, shortened: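 Also added – OMFP at 25 µM · Test system – STEP tyrosine phosphatase · Technique – FITC-channel fluorescence of OMFP product · Schedule – 20 min at room temperature, dark · Evaluation – control-normalized % inhibition with plate pattern correction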
row,Structure (SMILES),inhibition
1,Cc1ccc(NCCc2c([N+](=O)[O-])cc([N+](=O)[O-])cc2[N+](=O)[O-])cc1,inactive: 3.1%
2,CCCOP(=S)(Nc1nc(N)cc(=O)[nH]1)OCCC,inactive: -2%
3,Cc1cccc(OCC(=O)OC2CN3CCC2CC3)c1 (centres undefined),inactive: -5%
4,O=[As](O)(c1cccc(O)c1)c1cccc(O)c1,inactive: -3.4%
5,O=C(OC1CN2CCC1CC2)c1ccc(Cl)cc1 (centres undefined),inactive: -0.1%
6,O=[As](O)(O)c1cccnc1,inactive: 3.7%
7,COc1cc(C(=O)NCC2(N3CCOCC3)CCCCC2)cc(Cl)c1OC(C)C,inactive: 0.4%
8,CS(=O)(=O)c1ccc(Cl)c(NC(=O)COC(=O)C(O)(c2ccccc2)c2ccccc2)c1,inactive: -3.1%
9,CC(C)/C=N\N=C(\N)N[N+](=O)[O-],inactive: -1.2%
10,CN(C(=O)Cc1ccc(Cl)c(Cl)c1)[C@@H]1CCCC[C@H]1N1CCCC1,inactive: -0.5%
11,CC1(CBr)Cn2c(nc3ccccc3c2=O)S1 (centres undefined),inactive: -3.4%
12,COc1ccccc1CNC(=O)COC(=O)C(O)(c1ccccc1)c1ccccc1,inactive: 0.9%
13,O=P1(N(CCCl)CCCl)NCCC(C(F)(F)F)O1 (centres undefined),inactive: -3.4%
14,Clc1n[nH]nc1-c1nn[nH][15n]1,inactive: -4.7%
15,CC(C)(C)C(=O)NC(Sc1ncccn1)C(Cl)(Cl)Cl (centres undefined),inactive: -2.3%
16,O=P1(Nc2ccccn2)COc2ccccc2OC1,inactive: 0.2%
17,CCC1=CC2Cc3nc4ccc(Cl)cc4c(N)c3C(C1)C2 (centres undefined),inactive: -2.3%
18,CCOP(=O)(NC(=NC(C)c1ccccc1)NC(C)c1ccccc1)OCC (centres undefined),inactive: 1.5%
19,CCOP(=O)(Nc1ccc(C)cn1)OCC,inactive: 0.4%
20,CN(CCCl)Cc1cc(Cl)c(NC2=NCCN2)c(Cl)c1,inactive: -2.7%
21,Nc1cccc([As](=O)(O)c2ccccc2)c1,inactive: -2.5%
22,O=[As](O)(c1cccs1)c1cccs1,inactive: -2.4%
23,Cc1ccc(OCC(=O)OC2CN3CCC2CC3)cc1 (centres undefined),inactive: 3%
24,O=P1(Nc2ccc(Br)cn2)COc2ccccc2OC1,inactive: -2.6%
25,NS(=O)(=O)c1cccc(NC(=O)COC(=O)C(O)(c2ccccc2)c2ccccc2)c1,inactive: -3.1%

row,Structure (SMILES),inhibition
1,Cc1ccc(S(=O)(=O)N(CCCN)CCCc2c(C)nc(N)[nH]c2=O)cc1,inactive: 0.1%
2,O=P1(Nc2ncccn2)COc2ccccc2OC1,inactive: 0.7%
3,CN(C)C1(CNC(=O)c2ccc(S(C)(=O)=O)cc2)CCCCC1,inactive: -0.1%
4,O=C(/C=C/c1ccccc1)OC1CN2CCC1CC2 (centres undefined),inactive: -1.6%
5,CCCC1OP(=O)(Nc2ccccc2)OCC1CC (centres undefined),inactive: -0.9%
6,Cc1nn(-c2ccccc2)c2c1P(=O)(N1CCOCC1)N(C)C(c1ccccc1)=N2 (centres undefined),inactive: -0.4%
7,CC1CCC(C(C)C)C(OP(=O)(Nc2ccccn2)c2ccccc2)C1 (centres undefined),inactive: -1.2%
8,Cc1ccc(C(=O)OC2CN3CCC2CC3)cc1 (centres undefined),inactive: 0%
9,O=P(Nc1ccccn1)(c1cccc2ccccc12)c1cccc2ccccc12,inactive: 0%
10,Cc1cc(SC(NC=O)C(Cl)(Cl)Cl)ncn1 (centres undefined),inactive: -0.6%
11,O=[N+]([O-])c1ccc(Nc2ccc(Oc3ccc([N+](=O)[O-])cc3[N+](=O)[O-])cc2)c([N+](=O)[O-])c1,inactive: 1.4%
12,CCOC(=O)Nc1cccc([As](=O)(O)O)c1,inactive: -6.8%
13,COP(=O)(OC)N1CC1c1ccccc1 (centres undefined),inactive: 1.6%
14,CCCCOc1ccc(C(=O)NCC2(N3CCCCC3)CCCCC2)cc1OC,inactive: 0.3%
15,Cc1cc(SC(NC(=O)c2ccccc2)C(Cl)(Cl)Cl)nc(C(C)C)n1 (centres undefined),inactive: -2.1%
16,CCOC(=O)Nc1ccc([As](=O)(O)O)c(O)c1,inactive: 3.6%
17,O=C(O)C(O)c1ccc(N(CCCl)CCCl)cc1 (centres undefined),inactive: -1.2%
18,CC1CCNP(=O)(N(CCCl)CCCl)O1 (centres undefined),inactive: -4.7%
19,CCC(C)N(CC(C)C)C(=S)SC(NC(C)=O)C(Cl)(Cl)Cl (centres undefined),inactive: -1.2%
20,O=C(OC1CN2CCC1CC2)c1cccc([N+](=O)[O-])c1 (centres undefined),inactive: -0.3%
21,CSc1ccc(Nc2c([N+](=O)[O-])cc([N+](=O)[O-])cc2[N+](=O)[O-])cc1,inactive: 6.2%
22,CCOC(=O)c1ccc(NC(=O)C(C)(CCl)SC)cc1 (centres undefined),inactive: -5.4%
23,O=C(O)C(=O)c1ccc(N(CCCl)CCCl)cc1,inactive: -2.7%
24,O=C(COc1ccccc1)OC1CN2CCC1CC2 (centres undefined),inactive: 2.2%
25,O=C(Nc1ccncc1[N+](=O)[O-])c1ccc([N+](=O)[O-])cc1[N+](=O)[O-],inactive: 1.2%

row,Structure (SMILES),inhibition
1,COP1(=S)c2c(C)nn(CCC#N)c2N=C(c2ccc(F)cc2)N1C (centres undefined),inactive: -4.8%
2,COC(=O)C1(C)COP(=O)(N2CCCC2)OC1 (centres undefined),inactive: -1.3%
3,O=[N+]([O-])c1cc(Oc2ccc([N+](=O)[O-])cc2C(F)(F)F)cc([N+](=O)[O-])c1,inactive: 3.1%
4,COc1ccc(N/C(=N/P(=O)(N2CCOCC2)N2CCOCC2)N2CCOCC2)cc1,inactive: -0.4%
5,O=P1(N(CCCl)CCCl)Nc2ccccc2N1,inactive: -1.8%
6,O=P1(N(CCCl)CCCl)OCCCN1CCCl (centres undefined),inactive: -1.7%
7,COc1ccc2nc(NP(=O)(c3ccccc3)c3ccccc3)sc2c1,inactive: -0.2%
8,COc1cc(I)ccc1[As](=O)(O)O,inactive: -0.3%
9,Cc1c2c(nc3ccccc13)SC(C(Cl)Cl)C2 (centres undefined),inactive: 0.9%
10,O=C(OC1CN2CCC1CC2)C12CC3CC(CC(C3)C1)C2 (centres undefined),inactive: 7.4%
11,Cc1cc(=O)[nH]c(N[N+](=O)[O-])n1,inactive: -3.5%
12,CC(C)NC(=O)NP(=O)(Oc1ccccc1)Oc1ccccc1,inactive: 1.3%
13,O=C(OC1CN2CCC1CC2)c1cccc2[nH]cnc12 (centres undefined),inactive: -0.6%
14,CCN(CC)C(=S)SC(NC=O)C(Cl)(Cl)Cl (centres undefined),inactive: 3.5%
15,O=[N+]([O-])c1cc([N+](=O)[O-])c(-c2ccn[nH]2)s1,inactive: 0.2%
16,ClCCSc1nnc(-c2cccnc2)o1,inactive: 2%
17,COC(=O)C1(C)COP(=O)(N2CCCCCC2)OC1 (centres undefined),inactive: -4.8%
18,CC(C)c1ccc(OP(=O)(Nc2ccccn2)Oc2ccccc2F)cc1 (centres undefined),inactive: -3.4%
19,Cc1ccc(OP(=O)(Nc2ccc([N+](=O)[O-])cn2)Oc2ccc(C)cc2)cc1,inactive: -1.3%
20,Cc1ccc2nc3c(c(C)c2c1)CC(C(Cl)Cl)S3 (centres undefined),inactive: 2.5%
21,O=[As](O)(c1ccc(O)cc1)c1ccccc1O,inactive: -0.4%
22,C[As](=O)(O)c1cccc(C(=O)O)c1,inactive: -2%
23,O=[N+]([O-])c1ccc(-c2cc([N+](=O)[O-])c(O)c([N+](=O)[O-])c2)cc1,inactive: 10.9%
24,COc1cc(C(=O)NCC2(N3CCOCC3)CCCCC2)ccc1OCC(C)C,inactive: -0.5%
